Earlier results, collected in patent publication US4255420A, “Hormone combination and method for stimulation of ovulation” (VEB Berlin-Chemie, priority 1978, dated 1981).

System: swine
Conditions: after presynchronization and PMSG; considerable variation

In the case of “HCG: gonadotropin hormone derived from the urine of pregnant women”, the “time of ovulation after the HCG injection” value is given as “about 42 hours”.
